Laboratory results reported in patent US11584714B2 (dated 2023).
Where a name gives a salt, the structure may show the parent alone.

Protein sequences, listed by entry. Tags and fused reporters are not part of them. Residues count along the entry.
UniProt O00187, 445-686: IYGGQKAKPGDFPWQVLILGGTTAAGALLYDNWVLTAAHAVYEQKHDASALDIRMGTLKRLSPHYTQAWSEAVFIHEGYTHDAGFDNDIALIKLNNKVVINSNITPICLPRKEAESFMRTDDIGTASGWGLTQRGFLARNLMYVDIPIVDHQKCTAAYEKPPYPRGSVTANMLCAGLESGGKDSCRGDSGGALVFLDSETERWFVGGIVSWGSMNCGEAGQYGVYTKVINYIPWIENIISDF

Molecular target: MASP-2 (CCP1-CCP2-SP) (Homo sapiens (Human), UniProt O00187)
Type: biochemical
Details: read-out: MASP-2 Ki

## Cc1nc(N)ccc1CNC(=O)C(C)NC(=O)[C@H]1C[C@H](c2cccc(-c3ccccc3)c2)CN1 (stereo in doubt) [compound 1360, (2R,4R)-4-([1,1′-Biphenyl]-3-yl)-N—((R)-1-(((6-amino-2-methylpyridin-3-yl)methyl)amino)-1-oxopropan-2-yl)pyrrolidine-2-carboxamide Di-trifluoroacetate salt]
  Ki: < 500 nM
